Assay [1] is filed under the species Oryctolagus cuniculus. The assay is described as follows: Potency index, ratio of BPTU IC50 to test compound IC50 for antagonist activity at P2Y1 receptor in platelet-rich plasma of male Japanese white rabbit assessed as inhibition of ADP-induced cytosolic Ca2+ level pretreated for 5 mins followed by ADP addition by FLUO-4 AM dye based analysis. The assay is classed as cell-free. As to conditions: filed as antagonist.

The species named for assay [2] is Oryctolagus cuniculus. Kind of assay: Potency index, ratio of HNW001 IC50 to test compound IC50 for antagonist activity at P2Y1 receptor in platelet-rich plasma of male Japanese white rabbit assessed as inhibition of ADP-induced cytosolic Ca2+ level pretreated for 5 mins followed by ADP addition by FLUO-4 AM dye based analysis. The assay is classed as cell-free. Particulars: filed as antagonist.

On to `N#Cc1cccc(Oc2nc(-c3cccc(C#N)c3)ncc2C(=O)O)c1`, for which the Ratio IC50 in the assay filed under Oryctolagus cuniculus [1] and in the assay filed under Oryctolagus cuniculus [2] was 5.1 throughout.
`N#Cc1cccc(-c2nc(C(F)F)c(C(=O)O)n2OCc2csc(N)n2)c1`: the Ratio IC50 in the assay filed under Oryctolagus cuniculus [1] and in the assay listed under Oryctolagus cuniculus [2] was 5.1 each time.

For the origin of these results see ChEMBL document CHEMBL6182910, “Design, Synthesis, and Biological Evaluation of 4-(Difluoromethyl)-1H-imidazole-5-carboxylic Acids/4-(3-Cyanophenoxy)pyrimidine-5-carboxylic Acids as P2Y1 Receptor Antagonists for Ischemic Stroke Treatment” (J Med Chem, 2025).
